Measurements as given in patent US20250269058A1, “GENE THERAPY FOR TREATING NEURODEGENERATIVE DISEASES” (ABRAIN, priority 2021, published 2025).

What was measured:
[1] = ThT assay of autoaggregation of human Tau 40 WT or Tau inhibitor; type: physicochemical; conditions: 30 μM inhibitor, 8 μM heparin, 50 μM ThT, 37° C., 70 hours
Method: (§1) All inhibitor peptides were purchased from Biomatik. Dissolution was performed at a working concentration of 1.2 mM in deionized water, with a minimum purity of 95% or higher. Human Tau 40 WT was expressed by the pQE80 vector in BL21-DE3 E. coli cells grown to OD600=0.8 in LB medium. Cells were induced with 1 mM IPTG for 3 hours at 37° C. and further incubated for 4 hours, and then cultured E. coli cells were harvested by centrifugation at 5,000 rpm for 20 minutes. The obtained E. coli was resuspended in a dissolution buffer (50 mM NaH2PO4, NaCl 250 mM, 10 mM imidazole pH 8.0) and then dissolved by sonication. Cell lysates were purified by centrifugation at 15,000 rpm for 15 minutes, and 1 ml of 50% Ni-NTA slurry was added to 4 ml of the supernatant and shaken at 4° C. for 60 minutes (200 rpm on a rotator) to mix gently. […]
(§2) Autoaggregation of human Tau 40 WT or Tau inhibitor was tested using 15 μM of human Tau 40 WT protein or 30 μM of inhibitor (SEQ ID NOs: 22 or 32), 8 μM heparin, and 50 μM ThT. ThT fluorescence was measured using a Biotek Synergy H1 reader at an excitation wavelength of 440 nm and emission wavelength of 485 nm. The reactions were incubated at 37° C., and measured every 15 minutes for 70 hours with orbital vibration of 425 cpm continuously. […]

human Tau 40 WT = molecular target: T1, human Tau 40 WT (Homo sapiens, UniProt P10636); assay: ThT assay, inhibition of human Tau 40 WT autoaggregation by Tau inhibitor; type: biochemical; conditions: 15 μM Tau protein and 30 μM inhibitor (1:2)
T1 construct: His tag (inferred from Ni-NTA purification and pQE80 vector); made in house; host or cells: E. coli BL21-DE3
Method: as §1, §2

B1: MQTAPVPMPDLKNVKSKIGSTENLKHQPGGGDVQPINKKLKLSNVQSKCGSKDNIKHVPGGGSVQPVYDPVDLSKVTSKCGSLGNIHHKPGGGQVEVKSEKLDFKDRVQSKIGSLDNITHVPGGGNKKIE (protein)
chain: MQTAPVPMPDLKNVKSKIGSTENLKHQPGGGDVQPINKKLKLSNVQSKCGSKDNIKHVPGGGSVQPVYDPVDLSKVTSKCGSLGNIHHKPGGGQVEVKSEKLDFKDRVQSKIGSLDNITHVPGGGNKKIE
modifications: Tau inhibitor
In the case of B1, the “autoaggregation in ThT assay” value [1] is reported as “did not show autoaggregation during the reaction” and the “inhibition of Tau WT aggregation (competition assay)” value (human Tau 40 WT) is reported as “aggregation of Tau WT was completely attenuated”.
